Some tests of the compounds listed are not included; inactive here does not mean inactive elsewhere.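 All cell lines were grown in 96-well plates and treated with compound for 48 hours. Here, GI50 denotes the concentration required for 50% inhibition of growth. TGI is the concentration that stops growth completely.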
Experiments:
Test in all cases: NCI-60 cell line screen, 48 h
[1] = test system: 786-0 renal
[2] = test system: A498 renal
[3] = test system: A549 NSCLC
[4] = test system: ACHN renal
[5] = test system: BT-549 breast
[6] = test system: CAKI-1 renal
[7] = test system: CCRF-CEM leukemia
[8] = test system: COLO 205 colon
[9] = test system: DU-145 prostate
[10] = test system: EKVX NSCLC
[11] = test system: HCC-2998 colon
[12] = test system: HCT-116 colon
[13] = test system: HCT-15 colon
[14] = test system: HL-60(TB) leukemia
[15] = test system: HOP-62 NSCLC
[16] = test system: HOP-92 NSCLC
[17] = test system: HS 578T breast
[18] = test system: HT29 colon
[19] = test system: IGROV1 ovarian
[20] = test system: K-562 leukemia
[21] = test system: KM12 colon
[22] = test system: LOX IMVI melanoma
[23] = test system: M14 melanoma
[24] = test system: MALME-3M melanoma
[25] = test system: MCF7 breast
[26] = test system: MDA-MB-231 breast
[27] = test system: MDA-MB-435
[28] = test system: MDA-N
[29] = test system: MOLT-4 leukemia
[30] = test system: NCI-H226 lung
[31] = test system: NCI-H23 lung
[32] = test system: NCI-H322M lung
[33] = test system: NCI-H460 lung
[34] = test system: NCI-H522 lung
[35] = test system: NCI/ADR-RES ovarian
[36] = test system: OVCAR-3 ovarian
[37] = test system: OVCAR-4 ovarian
[38] = test system: OVCAR-5 ovarian
[39] = test system: OVCAR-8 ovarian
[40] = test system: PC-3 prostate
[41] = test system: RPMI-8226 leukemia
[42] = test system: RXF 393 renal
[43] = test system: SF-268 CNS
[44] = test system: SF-295 CNS
[45] = test system: SF-539 CNS
[46] = test system: SK-MEL-2 melanoma
[47] = test system: SK-MEL-28 melanoma
[48] = test system: SK-MEL-5 melanoma
[49] = test system: SK-OV-3 ovarian
[50] = test system: SN12C renal
[51] = test system: SNB-19 CNS
[52] = test system: SNB-75 CNS
[53] = test system: SR leukemia
[54] = test system: SW-620 colon
[55] = test system: T-47D breast
[56] = test system: TK-10 renal
[57] = test system: U251 CNS
[58] = test system: UACC-257 melanoma
[59] = test system: UACC-62 melanoma
[60] = test system: UO-31 renal

## CC#CC(O)(C(=O)OC1C2CCN(CC2)C1C)C1=CCCC1 (stereo not given)
[1]
  GI50: > 100 µM
  TGI: > 100 µM
[2]
  GI50: > 100 µM
  TGI: > 100 µM
[3]
  GI50: > 100 µM
  TGI: > 100 µM
[4]
  GI50: > 100 µM
  TGI: > 100 µM
[5]
  GI50: > 100 µM
  TGI: > 100 µM
[6]
  GI50: > 100 µM
  TGI: > 100 µM
[7]
  GI50: 35.6 µM
  TGI: 72 µM
[8]
  GI50: > 100 µM
  TGI: > 100 µM
[9]
  GI50: > 100 µM
  TGI: > 100 µM
[10]
  GI50: > 100 µM
  TGI: > 100 µM
[11]
  GI50: > 100 µM
  TGI: > 100 µM
[12]
  GI50: > 100 µM
  TGI: > 100 µM
[13]
  GI50: > 100 µM
  TGI: > 100 µM
[14]
  GI50: > 100 µM
  TGI: > 100 µM
[15]
  GI50: > 100 µM
  TGI: > 100 µM
[16]
  GI50: > 100 µM
  TGI: > 100 µM
[17]
  GI50: > 100 µM
  TGI: > 100 µM
[18]
  GI50: > 100 µM
  TGI: > 100 µM
[19]
  GI50: > 100 µM
  TGI: > 100 µM
[20]
  GI50: 40.4 µM
  TGI: > 100 µM
[21]
  GI50: > 100 µM
  TGI: > 100 µM
[22]
  GI50: > 100 µM
  TGI: > 100 µM
[23]
  GI50: > 100 µM
  TGI: > 100 µM
[24]
  GI50: > 100 µM
  TGI: > 100 µM
[25]
  GI50: > 100 µM
  TGI: > 100 µM
[26]
  GI50: > 100 µM
  TGI: > 100 µM
[27]
  GI50: > 100 µM
  TGI: > 100 µM
[28]
  GI50: > 100 µM
  TGI: > 100 µM
[29]
  GI50: 32.4 µM
  TGI: 91.6 µM
[30]
  GI50: > 100 µM
  TGI: > 100 µM
[31]
  GI50: > 100 µM
  TGI: > 100 µM
[32]
  GI50: > 100 µM
  TGI: > 100 µM
[33]
  GI50: > 100 µM
  TGI: > 100 µM
[34]
  GI50: > 100 µM
  TGI: > 100 µM
[35]
  GI50: > 100 µM
  TGI: > 100 µM
[36]
  GI50: > 100 µM
  TGI: > 100 µM
[37]
  GI50: > 100 µM
  TGI: > 100 µM
[38]
  GI50: > 100 µM
  TGI: > 100 µM
[39]
  GI50: > 100 µM
  TGI: > 100 µM
[40]
  GI50: > 100 µM
  TGI: > 100 µM
[41]
  GI50: > 100 µM
  TGI: > 100 µM
[42]
  GI50: > 100 µM
  TGI: > 100 µM
[43]
  GI50: 26.7 µM
  TGI: > 100 µM
[44]
  GI50: > 100 µM
  TGI: > 100 µM
[45]
  GI50: > 100 µM
  TGI: > 100 µM
[46]
  GI50: > 100 µM
  TGI: > 100 µM
[47]
  GI50: > 100 µM
  TGI: > 100 µM
[48]
  GI50: > 100 µM
  TGI: > 100 µM
[49]
  GI50: > 100 µM
  TGI: > 100 µM
[50]
  GI50: > 100 µM
  TGI: > 100 µM
[51]
  GI50: > 100 µM
  TGI: > 100 µM
[52]
  GI50: 42.2 µM
  TGI: 81.6 µM
[53]
  GI50: > 100 µM
  TGI: > 100 µM
[54]
  GI50: > 100 µM
  TGI: > 100 µM
[55]
  GI50: > 100 µM
  TGI: > 100 µM
[56]
  GI50: > 100 µM
  TGI: > 100 µM
[57]
  GI50: > 100 µM
  TGI: > 100 µM
[58]
  GI50: > 100 µM
  TGI: > 100 µM
[59]
  GI50: > 100 µM
  TGI: > 100 µM
[60]
  GI50: > 100 µM
  TGI: > 100 µM

Source: PubChem BioAssay (NCI)
